Experimental data published in PubChem BioAssay AID602376 (Johns Hopkins Ion Channel Center, 2012).
This is a selection; strong and weak results do not stand in their true shares. Potency and affinity values are given separately. Records with an inconclusive call do not appear. Activity calls are given as the source filed them.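 Rule for the calls: active = raises choline transporter activity at one or more tested doses and gives a fitted dose-response curve; inconclusive = no clear call, values can overlap the other calls; inactive = no choline transporter activation at any dose, or no curve.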

Sequences of proteins named here, by UniProt entry; tags and fusion partners are left off. A change or cut given only in a name is not applied to a line headed by its entry.
UniProt Q9GZV3: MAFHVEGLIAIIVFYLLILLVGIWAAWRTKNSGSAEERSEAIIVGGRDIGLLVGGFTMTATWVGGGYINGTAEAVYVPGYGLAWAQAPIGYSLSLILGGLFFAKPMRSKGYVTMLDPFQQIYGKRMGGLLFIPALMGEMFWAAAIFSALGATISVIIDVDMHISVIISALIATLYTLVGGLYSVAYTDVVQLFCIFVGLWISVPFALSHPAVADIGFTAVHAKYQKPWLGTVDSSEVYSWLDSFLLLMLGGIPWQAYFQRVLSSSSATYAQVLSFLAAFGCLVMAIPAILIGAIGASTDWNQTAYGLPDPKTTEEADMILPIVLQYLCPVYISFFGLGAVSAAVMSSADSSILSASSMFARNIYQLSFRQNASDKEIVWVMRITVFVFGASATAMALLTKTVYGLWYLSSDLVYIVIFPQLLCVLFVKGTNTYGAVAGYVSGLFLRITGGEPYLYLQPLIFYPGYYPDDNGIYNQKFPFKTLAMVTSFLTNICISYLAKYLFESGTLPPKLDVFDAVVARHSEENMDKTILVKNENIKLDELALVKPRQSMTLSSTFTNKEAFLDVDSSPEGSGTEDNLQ

Target: High affinity choline transporter 1 (Homo sapiens) (UniProt Q9GZV3)
Test: CHT activators, dose response, cell-based, 10-point CRC, membrane potential dye (AID 602376)
Conditions: HEK293-CHT, choline-induced membrane potential dye, cells express CHT LV-AA mutant; at 67 µM (top of the series)

**Q.** How did the percent activation turn out when `CC1CCC(C(C)C)C(OP(=O)(Nc2ccccn2)c2ccccc2)C1` (stereo unspecified) was run?
**A.** inactive: 71.4%
